The target of one test is VEGFR2 kinase (Homo sapiens, UniProt P35968). Kind of test: HTRF method for testing the inhibitory activity of compounds against VEGFR2. It counts as biochemical. As to conditions: read-out: VEGFR2 kinase. (In TR-FRET formats the signal depends on donor and acceptor labels being close together.)
The target of the next test is Wild-type RET kinase (Homo sapiens, UniProt P07949). Put plainly: HTRF method for testing the inhibitory activity of compounds against RET. It counts as biochemical. Conditions: read-out: Wild-type RET kinase.

Amino acid sequences for entries named in this document (tags omitted). Residues count along the entry.
UniProt P35968, 20-1356 limits assumed: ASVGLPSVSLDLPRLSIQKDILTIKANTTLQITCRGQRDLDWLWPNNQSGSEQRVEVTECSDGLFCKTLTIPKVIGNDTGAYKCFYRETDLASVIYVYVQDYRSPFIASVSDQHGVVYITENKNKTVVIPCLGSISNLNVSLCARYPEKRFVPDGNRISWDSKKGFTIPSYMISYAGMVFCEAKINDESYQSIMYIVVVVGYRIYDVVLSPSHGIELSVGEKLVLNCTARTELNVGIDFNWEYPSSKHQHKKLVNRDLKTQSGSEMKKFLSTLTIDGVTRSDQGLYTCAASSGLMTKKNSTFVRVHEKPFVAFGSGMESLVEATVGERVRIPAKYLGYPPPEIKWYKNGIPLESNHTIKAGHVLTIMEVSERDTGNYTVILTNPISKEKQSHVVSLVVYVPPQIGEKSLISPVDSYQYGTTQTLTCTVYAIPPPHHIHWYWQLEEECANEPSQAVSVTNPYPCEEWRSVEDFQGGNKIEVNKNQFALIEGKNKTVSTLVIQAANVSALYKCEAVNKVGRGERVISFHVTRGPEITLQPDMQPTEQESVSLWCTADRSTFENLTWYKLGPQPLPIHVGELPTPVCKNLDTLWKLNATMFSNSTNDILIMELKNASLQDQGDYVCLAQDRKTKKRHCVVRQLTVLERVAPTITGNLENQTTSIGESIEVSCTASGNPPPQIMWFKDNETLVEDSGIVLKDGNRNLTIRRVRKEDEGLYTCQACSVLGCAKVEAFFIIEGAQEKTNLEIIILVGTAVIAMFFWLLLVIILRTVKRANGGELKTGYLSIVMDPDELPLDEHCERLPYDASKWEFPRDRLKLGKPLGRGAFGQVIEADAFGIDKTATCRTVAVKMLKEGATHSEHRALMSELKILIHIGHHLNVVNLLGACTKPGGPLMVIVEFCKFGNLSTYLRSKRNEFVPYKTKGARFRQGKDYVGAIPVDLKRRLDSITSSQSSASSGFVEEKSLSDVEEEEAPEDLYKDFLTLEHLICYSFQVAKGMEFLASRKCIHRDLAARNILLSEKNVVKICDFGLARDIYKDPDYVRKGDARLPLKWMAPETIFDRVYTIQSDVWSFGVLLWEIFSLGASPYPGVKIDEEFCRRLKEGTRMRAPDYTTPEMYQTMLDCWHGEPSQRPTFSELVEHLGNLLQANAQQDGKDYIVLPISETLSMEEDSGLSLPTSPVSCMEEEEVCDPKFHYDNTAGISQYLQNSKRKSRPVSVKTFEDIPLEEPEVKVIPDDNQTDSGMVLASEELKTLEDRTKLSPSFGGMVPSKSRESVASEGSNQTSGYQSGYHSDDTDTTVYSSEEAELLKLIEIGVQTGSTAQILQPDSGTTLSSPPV
UniProt P07949, 29-1114 limits assumed: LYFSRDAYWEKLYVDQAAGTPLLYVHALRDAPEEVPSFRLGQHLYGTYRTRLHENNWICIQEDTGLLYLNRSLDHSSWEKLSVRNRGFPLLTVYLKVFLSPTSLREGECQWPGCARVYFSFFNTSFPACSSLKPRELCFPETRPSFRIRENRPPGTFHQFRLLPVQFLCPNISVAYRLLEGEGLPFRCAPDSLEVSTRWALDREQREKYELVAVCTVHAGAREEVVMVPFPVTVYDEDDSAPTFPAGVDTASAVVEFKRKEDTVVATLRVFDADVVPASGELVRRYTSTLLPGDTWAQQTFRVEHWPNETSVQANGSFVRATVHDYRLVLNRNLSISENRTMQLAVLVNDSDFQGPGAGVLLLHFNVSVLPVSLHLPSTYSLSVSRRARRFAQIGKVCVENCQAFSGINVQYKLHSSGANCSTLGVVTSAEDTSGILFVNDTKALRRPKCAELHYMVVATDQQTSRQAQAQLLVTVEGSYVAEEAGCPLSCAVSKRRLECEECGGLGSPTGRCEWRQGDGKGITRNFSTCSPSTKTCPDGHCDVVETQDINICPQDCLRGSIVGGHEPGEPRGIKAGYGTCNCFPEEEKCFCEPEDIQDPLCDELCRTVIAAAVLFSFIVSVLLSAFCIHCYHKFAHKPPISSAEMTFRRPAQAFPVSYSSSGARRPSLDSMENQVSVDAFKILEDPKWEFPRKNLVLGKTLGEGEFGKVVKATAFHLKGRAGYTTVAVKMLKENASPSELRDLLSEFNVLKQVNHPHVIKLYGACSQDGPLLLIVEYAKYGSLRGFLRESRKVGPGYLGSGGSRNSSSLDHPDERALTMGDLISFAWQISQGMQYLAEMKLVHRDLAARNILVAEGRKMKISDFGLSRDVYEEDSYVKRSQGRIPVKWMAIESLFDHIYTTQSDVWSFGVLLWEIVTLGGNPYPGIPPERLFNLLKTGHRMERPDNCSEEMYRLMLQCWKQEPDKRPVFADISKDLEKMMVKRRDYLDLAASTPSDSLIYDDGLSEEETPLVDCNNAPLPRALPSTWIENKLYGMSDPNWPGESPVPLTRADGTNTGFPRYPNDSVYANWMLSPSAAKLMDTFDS

Each structure is given as a SMILES string.

With `COC(=O)c1cnn2cc(-c3cnn(C)c3)cc(-c3ccc(N4CCN(Cc5ccc(OC)nc5)CC4)nc3)c12`, the IC50 on VEGFR2 kinase came to 202 nM; on Wild-type RET kinase, 12.7 nM.

Values taken from patent publication US20230219979A1, “PYRAZOLO[1,5-a]PYRIDINE COMPOUND, PREPARATION METHOD THEREFOR AND USE THEREOF” (SHENZHEN ZHONGGE BIOLOGICAL TECHNOLOGY CO., LTD., priority 2019, published 2023).
